These are literature values, as cited in PMC7476584, “Lipophilicity trends upon fluorination of isopropyl, cyclopropyl and 3-oxetanyl groups” (Beilstein Journal of Organic Chemistry, 2020).

The conditions of this data set: reference compound in the 19F NMR method; ref not specified; cited from earlier work.

In the case of 2-fluoroethan-1-ol, the logP of reference compound (known value) was -0.75.
